Article PMC10611619, “[^99mTc]Tc-PentixaTec: development, extensive pre-clinical evaluation, and first human experience” (European Journal of Nuclear Medicine and Molecular Imaging, 2023)

Chains of the proteins cited; added tags and fusions are not shown.
UniProt P61073, whole entry: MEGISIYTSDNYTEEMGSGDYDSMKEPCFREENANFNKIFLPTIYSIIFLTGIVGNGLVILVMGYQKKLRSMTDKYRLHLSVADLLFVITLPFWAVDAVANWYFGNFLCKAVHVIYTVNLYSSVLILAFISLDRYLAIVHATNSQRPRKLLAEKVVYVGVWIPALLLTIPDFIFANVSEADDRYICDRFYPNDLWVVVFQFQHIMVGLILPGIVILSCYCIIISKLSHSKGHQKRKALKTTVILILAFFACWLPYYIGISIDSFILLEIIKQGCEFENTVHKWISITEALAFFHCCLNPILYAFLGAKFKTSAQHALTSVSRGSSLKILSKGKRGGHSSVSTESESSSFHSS

Biological target: human CXCR4 (hCXCR4) (Homo sapiens, UniProt P61073)
Assay: Competitive binding to hCXCR4 (IC50), Jurkat cells, [^125I]FC-131 as radioligand
Details: [^125I]FC-131 radioligand

In the case of `CN1C(=O)[C@@H](Cc2ccc(O)c(I)c2)NC(=O)CNC(=O)[C@H](Cc2ccc3ccccc3c2)NC(=O)[C@H](CCCNC(=N)N)NC(=O)[C@H]1CCCNC(=O)c1ccc(CNC(=O)CN2CCN(CC(=O)O)CCN(CC(=O)O)CCN(CC(=O)O)CC2)cc1` [^natLu-PentixaTher, metal not drawn, reference compound], the IC50 is reported as 0.0146 ± 0.001 µM.
